# The list shows a part of the results, in another mix than the full data. Inconclusive results are not listed. Activity calls are given as the source filed them.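 How the source made its calls: active means thallium flux slope more than 3 SD above or below the plate's solvent-only control mean, mostly below; inconclusive means the two repeat wells disagreed; inactive means no significant shift from solvent-only controls.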
# Sequences of proteins named here, by UniProt entry; tags and fusion partners are left off. A change or cut given only in a name is not applied to a line headed by its entry.
# UniProt Q9H2X9: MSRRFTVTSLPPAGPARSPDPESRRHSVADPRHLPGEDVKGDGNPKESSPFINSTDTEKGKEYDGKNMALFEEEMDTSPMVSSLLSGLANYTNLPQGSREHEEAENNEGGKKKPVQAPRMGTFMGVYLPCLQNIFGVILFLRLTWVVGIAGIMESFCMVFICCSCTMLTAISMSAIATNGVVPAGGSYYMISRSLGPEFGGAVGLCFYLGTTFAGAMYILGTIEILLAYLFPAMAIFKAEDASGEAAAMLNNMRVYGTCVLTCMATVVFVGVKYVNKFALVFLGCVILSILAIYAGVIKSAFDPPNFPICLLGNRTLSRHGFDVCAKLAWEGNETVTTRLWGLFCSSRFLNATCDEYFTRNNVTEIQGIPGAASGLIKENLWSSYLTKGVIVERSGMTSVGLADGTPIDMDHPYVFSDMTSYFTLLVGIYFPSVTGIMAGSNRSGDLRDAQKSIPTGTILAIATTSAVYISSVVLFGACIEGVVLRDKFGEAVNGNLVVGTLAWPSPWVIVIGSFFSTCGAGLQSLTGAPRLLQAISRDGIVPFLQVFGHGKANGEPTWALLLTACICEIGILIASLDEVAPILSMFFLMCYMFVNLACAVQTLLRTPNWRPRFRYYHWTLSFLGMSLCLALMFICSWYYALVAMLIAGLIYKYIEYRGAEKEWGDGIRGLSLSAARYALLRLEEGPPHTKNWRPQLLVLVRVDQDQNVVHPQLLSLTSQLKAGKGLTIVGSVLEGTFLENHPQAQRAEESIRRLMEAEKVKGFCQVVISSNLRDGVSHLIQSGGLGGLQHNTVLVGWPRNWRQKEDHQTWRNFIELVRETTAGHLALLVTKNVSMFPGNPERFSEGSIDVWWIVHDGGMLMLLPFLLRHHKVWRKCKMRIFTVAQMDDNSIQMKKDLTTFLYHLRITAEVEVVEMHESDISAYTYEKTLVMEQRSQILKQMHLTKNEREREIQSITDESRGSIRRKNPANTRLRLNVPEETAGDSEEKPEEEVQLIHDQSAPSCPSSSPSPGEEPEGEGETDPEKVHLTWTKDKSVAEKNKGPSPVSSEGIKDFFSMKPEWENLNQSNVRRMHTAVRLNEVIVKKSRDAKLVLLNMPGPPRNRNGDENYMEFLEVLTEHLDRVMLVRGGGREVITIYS
# Target: Solute carrier family 12 member 5 (Homo sapiens) (UniProt Q9H2X9)
# Assay: retest of KCC2 transport modulation, ouabain-free – cell-based, HEK293 KCC2, thallium flux, FluoZin2, secondary assay 2, confirmation (AID 1715);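 further: raw slope with 0.1% DMSO as baseline and bumetanide as block control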
# Conditions: HEK293-KCC2, thallium flux FluoZin2 fluorescence; at 10 µM; actives lie on both sides; F/F0 rise rate, 10–20 s post-thallium
row,Structure (SMILES),normalized thallium flux
1,O=c1c2cc([N+](=O)[O-])ccc2[nH]c2c([N+](=O)[O-])cc([N+](=O)[O-])cc12,inactive: 0.029
2,C[N+]1=C2C=CC=CC=C2SC12C([N+](=O)[O-])=CC([N+](=O)[O-])=C[C-]2[N+](=O)[O-] (configuration not stated),active: 0.0386
